By Ki is commonly meant the equilibrium dissociation constant of an inhibitor or competing ligand from its target.

The text below walks through data of patent US12491253B2, “Bicyclic peptide ligands specific for MT1-MMP” (BicycleRD Limited, priority 2018, dated 2025).

In this assay the target is MT1-MMP Hemopexin domain (PEX) (Homo sapiens, UniProt P50281). As to the kind of experiment: Human Fluorescence Polarisation Competition Binding Assay. The note with it: Human MT1-MMP FP competition binding; tracer 17-88-N006 at 1 nM; molecular scaffold TBMB. The text has this:
Due to its high affinity to the MT1-MMP Hemopexin domain (PEX), the fluoresceinated derivative of 17-88-N006 (SEQ ID NO: 28) can be used for competition experiments (using FP for detection). Here, a preformed complex of PEX with the fluorescent PEX-binding tracer (in all experiments-ACPYSWETCLFGDYRCA[Sar]6[KFI] (17-88-N006) (SEQ ID NO: 28)) is titrated with free, non-fluoresceinated bicyclic peptide. Since all 17-69-based peptides are expected to bind at the same site, the titrant will displace the fluorescent tracer from PEX. Dissociation of the complex can be measured quantitatively, and the Kd of the competitor (titrant) to the target protein determined. The advantage of the competition method is that the affinities of non-fluoresceinated bicyclic peptides can be determined accurately and rapidly. […] Subsequently, the non-fluorescent competitor bicyclic peptide (usually just the bicycle core sequence) is titrated, such that it displaces the fluorescent tracer from the target protein. The displacement of the tracer is measured and associated with a drop in fluorescence polarisation. The drop in fluorescence polarisation is proportional to the fraction of target protein bound with the non-fluorescent titrant, and thus is a measure of the affinity of titrant to target protein.
The raw data is fit to the analytical solution of the cubic equation that describes the equilibria between fluorescent tracer, titrant, and binding protein. The fit requires the value of the affinity of fluorescent tracer to the target protein, which can be determined separately by direct binding FP experiments (see next section). The curve fitting was performed using Sigmaplot 12.0 and used as an adapted version of the equation described by Zhi-Xin Wang (FEBS Letters (1995) 360, 111-114).
A general note: Polarisation of emitted light reports the rotation of a fluorescent probe.
In turn, A-(SEQ ID NO: 12)-A [BCY1039] displayed a Ki of 177 nM.
The value for Ac-(SEQ ID NO: 2) [BCY1027] was 92.7 ± 68.5 nM; that for “[DOTA]-G-[Sar]5-(SEQ ID NO: 2) [BCY1388]” was 81.3 ± 32.6 nM; that for A-(SEQ ID NO: 8)-A [BCY1035] was 391 nM.
In turn, A-(SEQ ID NO: 3)-A [BCY1029] had a Ki of 503 nM.
